UUG fidelity – modulators of start codon recognition fidelity in yeast; AID 602363; activity score, % at 18.7 µM; S. cerevisiae UUG-firefly luciferase reporter, luminescence/redox ratio; 0.13% of 350,000 active;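 active = replicate mean at a twofold rise or more, about +100% in these data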;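 note: firefly luciferase made from a UUG start codon reports start codon fidelity; reporter light over untreated wells divided by growth signal over untreated wells; some hits fall short of that in this replicate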
Tn6 DDE FP – inhibitors of Tn6 peptide binding to fibrin DD(E), primary screen, biochemical, fluorescence polarization, human fibrin, Tn6 probe; Fibrinogen beta chain (Homo sapiens), P02675; inhibition, % at 8.3 µM; AID 720509, 2013; 370,000 compounds, 0.21% hits; Fibrin DD(E) TRITC-Tn6 fluorescence polarization displacement;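 active = inhibition above a per-campaign cutoff: mean of compounds within control limits plus 3 SD, cut at about 15% in these data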;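 note: 0% = median of all compound wells on the plate and 100% = blocking peptide control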
DDE Tn7 FP inh – inhibitors of Tn7 peptide binding to fibrin DD(E), primary screen, biochemical, fluorescence polarization, human fibrin, Tn7 probe; Fibrinogen beta chain (Homo sapiens), P02675; FP displacement of FITC-Tn7 peptide from fibrin DD(E); 0% = median of compound wells per plate; inhibition, % at 8.3 µM; 370,000 compounds, 0.13% hits; AID 720508, 2013;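 active = inhibition above the mean of compounds falling within the control limits plus 3 SD of them, cut at about 14% in these data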;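 note: 0% = plate median of compound wells and 100% = 10 µM Aha-Tn7 peptide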
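Assay system: Fibrin-DD(E) protein isolated from polymerized human fibrin clots; read-out basis: percent inhibition; medium: Tris/NaCl/CaCl2 buffer, pH 7.8; signal: FP measurement; incubation: 10 min plus 3 h, room temperature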
PglD inh – C. jejuni PglD acetyltransferase inhibitors, primary screen, biochemical, DTNB colorimetric, single point | inhibition, % at 12.5 µM | purified PglD enzyme, DTNB colorimetric CoA detection | 360,000 compounds, 0.098% hits; in the data active = inhibition above about 16%, passing the limit was not always enough
Tn7 DDE conf – inhibitors of Tn7 peptide binding to fibrin DD(E), confirmation, biochemical, fluorescence polarization, human fibrin, Tn7 probe | inhibition, % at 8.3 µM | 460 compounds, 5% hits | FP displacement of TRITC-Tn7 peptide from DD(E); 0% set at plate's compound-well median | shares compounds with DDE Tn7 FP inh | AID 720628, 2013;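 active = inhibition above the campaign cutoff, the mean of compounds within control limits plus 3 SD, cut at about 14% in these data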;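 note: 100% = median FP of high control wells holding Aha-Tn7 inhibitor peptide; displacers lower polarization since freed probe rises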
DDE Tn7 FP ctr – counter-screen for inhibitors of Tn7 peptide binding to fibrin DD(E); shares compounds with DDE Tn7 FP inh; TRITC-Tn7 probe displacement, fluorescence polarization; inhibition, % at 8.3 µM; 460 compounds, 3% hits;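 active = inhibition above the cutoff, the mean of compounds lying between the control bounds plus 3 SD of those compounds, cut at about 17% in these data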;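 note: 0% = median of compound sample wells and 100% = excess unlabeled Aha-Tn7 peptide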
An asterisk follows results filed as active; nt = not tested or not shown. Most compounds without a hit are left out; they make up all but 0.45% or so of the library.

Sample of the layout (2 entries):
Field names: A = UUG fidelity; B = Tn6 DDE FP; C = DDE Tn7 FP inh; D = PglD inh; E = Tn7 DDE conf; F = DDE Tn7 FP ctr
> CC1(C)c2[nH]c3ccccc3c2C[C@@H]2C(=O)N(Cc3ccc(F)cc3)C(=O)N21
  A: -9.7; B: 3.3; C: 16.8*; D: 4.8; E: 13.3; F: 8.8
> CSc1ccccc1NC(=O)COC(=O)c1cnc(C)cn1
  A: -16.2; B: -2.4; C: 14.2*; D: -3.7; E: -1.4; F: -6.4

The list itself, from the start:
Field names: A = UUG fidelity; B = Tn6 DDE FP; C = DDE Tn7 FP inh; D = PglD inh; E = Tn7 DDE conf; F = DDE Tn7 FP ctr
> CC1(C)c2[nH]c3ccccc3c2C[C@@H]2C(=O)N(Cc3ccc(F)cc3)C(=O)N21
  A: -9.7; B: 3.3; C: 16.8*; D: 4.8; E: 13.3; F: 8.8
> CSc1ccccc1NC(=O)COC(=O)c1cnc(C)cn1
  A: -16.2; B: -2.4; C: 14.2*; D: -3.7; E: -1.4; F: -6.4
> COc1ccccc1NC(=O)COC(=O)c1cnc(C)cn1
  A: 6.0; B: 3.1; C: 7.0; D: 7.5; E: nt; F: nt
> Fc1ccc(-n2cc(-c3ccccc3)c3c(=S)nc[nH]c32)cc1
  A: -28.5; B: 4.3; C: -0.1; D: -3.3; E: nt; F: nt
> O=c1[nH]cnc2c1c(-c1ccccc1)cn2-c1ccccc1
  A: 8.1; B: 7.2; C: 17.2*; D: -2.0; E: 2.2; F: -7.5
> COc1ccc(NC(=O)Nc2ccc3c(c2)C(=O)N([C@@H](C)CO)C[C@@H](C)[C@H](CN(C)C(=O)C2CCCCC2)OCCCC[C@@H](C)O3)cc1
  A: -5.6; B: nt; C: nt; D: 0.6; E: nt; F: nt
> COc1ccc(CNC(=O)C(OC(=O)c2ccco2)c2ccccc2F)cc1 (stereo not given)
  A: -7.2; B: -3.0; C: 14.2*; D: -3.9; E: 4.7; F: 5.3
> CC(=O)N1[C@@H](CO)[C@@H](c2ccc(C3=CCCC3)cc2)[C@@H]1CNC(=O)CN(C)C
  A: -5.9; B: nt; C: nt; D: 1.2; E: nt; F: nt
> CCOc1ccc(NC(=O)CN2CCN(CC(=O)Nc3ccc4c(c3)OCCO4)CC2)cc1
  A: -10.4; B: -1.1; C: 15.3*; D: -1.4; E: -1.0; F: -4.4
> CCOc1ccc(NC(=O)CN2CCN(CC(=O)Nc3cccc(F)c3)CC2)cc1
  A: -1.6; B: -2.7; C: -2.3; D: -6.2; E: nt; F: nt
> CCN1C(=O)[C@H]2[C@@H](c3ccc(C)cc3)N3C(=O)N(c4ccc(OC)cc4)C(=O)[C@@]3(C)[C@H]2C1=O
  A: -5.4; B: 1.2; C: 16.2*; D: -4.1; E: -6.9; F: -13.4
> CCN1C(=O)[C@H]2[C@@H](c3ccc(C)cc3)N3C(=O)N(c4ccc(C)cc4)C(=O)[C@@]3(C)[C@H]2C1=O
  A: -13.3; B: 6.2; C: -4.9; D: -2.1; E: nt; F: nt
> CN1[C@@H]2c3ccc(-c4ccc(F)cc4)c(=O)n3C[C@@H]2[C@@H](CO)[C@@H]1C(=O)Nc1ccccc1
  A: nt; B: nt; C: nt; D: -0.9; E: nt; F: nt
> COc1ccc(CC(NC(C)=O)C(=O)NC2CCN(c3c(Cc4ccccc4)c(C)nc4ncnn34)CC2)c(OC)c1 (stereo not given)
  A: nt; B: -2.6; C: 14.1*; D: nt; E: 8.6; F: 6.0
> Cc1ccc2c(c1)[C@H]1[C@H](CO2)[C@H](c2ccccc2)[C@]2(C)C(=O)N(Cc3ccc(F)cc3)CC(=O)N12
  A: -8.0; B: -5.5; C: 27.2*; D: -2.1; E: 13.8*; F: 11.2

(continued)
Field names: A = UUG fidelity; B = Tn6 DDE FP; C = DDE Tn7 FP inh; D = PglD inh; E = Tn7 DDE conf; F = DDE Tn7 FP ctr
> Cc1ccc2c(c1)[C@H]1[C@H](CO2)[C@H](c2ccccc2)[C@]2(C)C(=O)N(Cc3ccc(Cl)cc3)CC(=O)N12
  A: -4.9; B: -7.7; C: -6.5; D: -0.1; E: nt; F: nt
> CCCN(C(=O)COC(=O)COc1c(C)cccc1C)c1c(N)n(Cc2ccccc2)c(=O)[nH]c1=O
  A: -1.7; B: -7.2; C: 13.8*; D: 2.7; E: 0.0; F: -3.0
> CCC(=O)Nc1ccc2c(c1)C(=O)N(C)C[C@H](OC)[C@H](C)CN(CCc1ccccc1)[C@@H](C)CO2
  A: -11.5; B: nt; C: nt; D: 2.1; E: nt; F: nt
> C[C@@H]1CN([C@H](C)CO)C(=O)c2cc(NC(=O)Nc3ccccc3)ccc2O[C@H]1CN(C)C(=O)NC1CCCCC1
  A: -2.3; B: nt; C: nt; D: -0.3; E: nt; F: nt
> CC(=O)N1CCCN(C(=O)c2ccc3nc(Cc4cccc(Cl)c4)oc3c2)CC1
  A: -8.9; B: -0.4; C: -16.3; D: -8.3; E: nt; F: nt
> O=C1CN(C(=O)c2ccc3nc(Cc4cccc(Cl)c4)oc3c2)CCN1
  A: -1.9; B: 8.5; C: 13.8*; D: 3.1; E: 8.8; F: 2.5
> CN1[C@@H]2c3ccc(C4=CCCC4)c(=O)n3C[C@@H]2[C@@H](CO)[C@@H]1C(=O)NCc1ccccc1F
  A: nt; B: nt; C: nt; D: -1.4; E: nt; F: nt
> COc1cc(O)c(C(CCN2CCOCC2)c2ccc(N(C)C)cc2)c(OC)c1 (stereo not given)
  A: 7.7; B: 10.4; C: 14.2*; D: 3.2; E: -6.9; F: -6.1
> COc1ccc(-c2ccc3c(c2)O[C@@H](CN(C)Cc2ccccc2C(=O)O)[C@@H](C)CN([C@@H](C)CO)S3(=O)=O)cc1
  A: -5.5; B: nt; C: nt; D: -7.3; E: nt; F: nt
